## Measured affinities in a library of Ab-14 heavy chain variants

The target is the same throughout: PDVDLGDISGINAS, from the HR2 region of SARS-CoV-2 spike.

Parent scFv Ab-14: VH joined to VL by a (GGGGS)3 linker. Changes lie in the heavy chain CDRs alone.
VH: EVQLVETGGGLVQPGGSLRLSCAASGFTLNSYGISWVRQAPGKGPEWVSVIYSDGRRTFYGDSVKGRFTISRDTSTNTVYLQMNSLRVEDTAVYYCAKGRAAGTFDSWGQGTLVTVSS
VL: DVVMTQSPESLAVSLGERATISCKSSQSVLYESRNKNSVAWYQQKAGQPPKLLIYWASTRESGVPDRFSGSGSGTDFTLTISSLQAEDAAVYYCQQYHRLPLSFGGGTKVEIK

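The starting antibody came from a phage panning campaign against this peptide. The library (AAYL49) carries one to three amino acid substitutions per variant, with no insertions or deletions. The assay is AlphaSeq: two haploid yeast populations carry antibody and antigen on their surface. The frequency of each diploid, read from paired DNA barcodes, reflects how well the two displayed proteins bind. The ratio of observed to expected reads was calibrated, replicate by replicate, on BCL2-family standards whose Kd was known from biolayer interferometry. Mating was done three times.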

Variants are written as CDR1, CDR2 and CDR3 of the heavy chain (limits as in the source). Parent: GFTLNSYGIS, VIYSDGRRTFYGDSVK, GRAAGTFDS. The read-out is the apparent dissociation constant on a log10 scale (nM): the lower, the stronger. Replicates are averaged; those with no signal do not enter the mean. A pair that was not seen in any replicate is written "nd"; this usually means weak binding, but a binder can also be missed. Three control strains display no target. For library AAYL49, 15% of the pairings with them gave a signal, with a median of 4.06 and one signal in twenty below 2.83, so weak values seen in few replicates may be background.

| CDR-H1 | CDR-H2 | CDR-H3 | log10 Kd (nM), mean | replicates with signal |
|---|---|---|---|---|
| GFTLNEYGIS | VIYSDGRRNFYGDSVK | GRAEGTFDS | nd | 0/3 |
| GFTLNSYGIS | VIYSDQRRTFDGDSVK | GRAAGTFDC | nd | 0/3 |
| GFCMNSYGIS | VIYSDVRRTFYGDSVK | GRAAGTFDS | 4.45 | 2/3 |
| GFTLNSYGIS | VIWSDGERTFYGDSVK | IRAAGTFDS | nd | 0/3 |
| GFTLNSYGMS | VIYSDGRRWFYGDSVK | GRAAATFDS | nd | 0/3 |
| EMTLNSYGIS | VIYSDGRRYFYGDSVK | GRAAGTFDS | 3.65 | 3/3 |
| GFTINSYGIS | VIYSDGRRMFYGDKVK | GRAAGTFDS | 1.55 | 3/3 |
| GITLNSYGIS | VRYSDGRRTFYGDSVK | GRGAGTFDS | 4.00 | 1/3 |
| GFTLNSYGIS | VIASWGRRTFYGDSVK | TRAAGTFDS | nd | 0/3 |
| GFTLNSWGIS | VIYSDGRRTMYGDSKK | GRAAGTFDS | 4.20 | 2/3 |
| GFTLNSYGIS | VIYSDGRRTFYGWKVK | GRAAGTNDS | nd | 0/3 |
| GFTLNSYGIS | VIYSDGRTTFYGDSVK | GRAAGTFDD | nd | 0/3 |
| GFTLNSYGKS | VIYSDGRRTFYGDSVK | GYANGTFDS | nd | 0/3 |
| GFTLNSYGIF | VIYSDGRRHFYGDSVK | GRAAGTGDS | nd | 0/3 |
| GFTLNSYGIS | VIYSDGRRTFYGDSRY | GRAVGTFDS | nd | 0/3 |
| GFTLNSYDIS | VIYSDGRRTFYGDIVK | GRIAGTFDS | nd | 0/3 |
| GFTFNSYGFS | VIYSDGRRTFYGDSVY | GRAAGTFDS | nd | 0/3 |
| GFTLNSYGIS | VIYSCGIRTFGGDSVK | GRAAGTFDS | 4.51 | 1/3 |
| GFTLNSYGIS | VIYSDWRRTFYGPHVK | GRAAGTFDS | 3.36 | 1/3 |
| GYTLNSYGIE | VAYSDGRRTFYGDSVK | GRAAGTFDS | 4.35 | 1/3 |
| GFKLNSYGIS | VIYSDGRRTLYGFSVK | GRAAGTFDS | 4.71 | 1/3 |
| GHTLNSYGIS | VIYSNGRRTWYGDSVK | GRAAGTFDS | nd | 0/3 |
| GFTLNSYGIS | VIYSTGRRTFYGDSVK | GVAAGTKDS | nd | 0/3 |
| GFTLNHYGIS | VIYSDGRRTFYGDSVK | GHAAGTFQS | 1.45 | 3/3 |
| GFDLISYGIS | VIYSDGRRTFYGDSVK | GRAAYTFDS | 2.62 | 3/3 |
| LFTLNSYGIS | VIYSDGRTTFYGDSVK | GRAAGTHDS | 4.92 | 2/3 |
| GFTLNSYGIS | VIYSDGRRTFYGDAFK | GRAAGTFYS | nd | 0/3 |
| GFTLNSYGIS | YIYSDGRRTFYGDPVK | GRAAGSFDS | 2.74 | 1/3 |
| GFTLNSYGIS | VIYSDGQRTFYGDSHK | HRAAGTFDS | 2.79 | 1/3 |
| GFTLNSYSIS | VIYSDGRRTFYGDSVK | GRAAGTDDS | nd | 0/3 |
| GFTLNSVGIS | VIYSDKRRTFSGDSVK | GRAAGTFDS | 3.12 | 1/3 |
| GFTLNSYGIS | VIYYDGRRIFYGDSQK | GRAAGTFDS | nd | 0/3 |
| GFTLNSYGIS | HIYETGRRTFYGDSVK | GRAAGTFDS | 4.85 | 1/3 |
| GFTLNMYGIS | VIYSIGRRTFYGDSVK | GRAAGTTDS | 4.06 | 1/3 |
| GFTLNSYGIS | VFYSDGRRTFYGDSVK | GRPAGPFDS | nd | 0/3 |
| GFTLNSYGIS | VYYSDGRRTFYGDSVK | GRAVGTFHS | nd | 0/3 |
| GFTLHSYGIS | VIYSDGRRTFYGDSVK | GRDAGTADS | 1.54 | 3/3 |
| GFTLNSYGIS | VIYSHGRRTFYGDSVK | GHAAGTFGS | 3.55 | 1/3 |
| GFTLNSYGIS | VIYTDGRRTFYGDSVK | YRAAGTFDS | 5.15 | 3/3 |
| GFTLNSYGIY | VIYSVGRRDFYGDSVK | GRAAGTFDS | nd | 0/3 |
| GFTLNLYGIS | VIYSEGRRTFYGDSVK | GRACGTFDS | nd | 0/3 |
| GFTLNSYGIS | VIKSDGRRTFYGDIVK | GHAAGTFDS | 3.74 | 2/3 |
| GFTLNSYGIS | VIYSDGRRRFYGDSVK | GRIAGTFDS | 1.41 | 3/3 |
| GFTLNSYGIS | NIYSDGREIFYGDSVK | GRAAGTFDS | nd | 0/3 |
| GFTLNSYAIS | MIYSCGRRTFYGDSVK | GRAAGTFDS | nd | 0/3 |
| GFQLNSYGIS | VIYSDGRKTFYGDSVK | GRASGTFDS | nd | 0/3 |
| GFTLNSYGIS | VIYPDGRRTFYGDGVK | GRAAGTFDS | 3.29 | 1/3 |
| GFTLNSYGIG | VIYSAGRRTTYGDSVK | GRAAGTFDS | 5.12 | 2/3 |
| GFTLNSYGIS | VIYSHGRRTFYGDSVK | GRAAGTSDS | nd | 0/3 |
| GFTLNEYGIS | VIYSDGRRTFYGDSVK | ERLAGTFDS | nd | 0/3 |
| GFTLNSYGIK | VIYSDGRRTFYGDSVK | GVAAGTFRS | 4.17 | 1/3 |
| GFTLFSYGIS | VIVSDGRRTFYGDSVK | GRAVGTFDS | 3.99 | 2/3 |
| GFTLNSYGIS | VIYIDGRRTFYGDSVK | GRAAGKFDW | nd | 0/3 |
| LFTLNSYGIS | HIYSDGRRTFYGDSVK | GRAAGTFDK | 3.89 | 1/3 |
| GFTLNSYGIS | VIASDGRRTFYGDSVK | GRAARTMDS | 4.87 | 1/3 |
| GFTLNSYGIS | VIYSAARCTFYGDSVK | GRAAGTFDS | 4.38 | 2/3 |
| GFTLNSYGIS | VIYSDGRGTFYGDSHK | GRPAGTFDS | nd | 0/3 |
| GFWLNSYGIS | VIYSPGRRTFYGDSVK | GRAAGTFDS | 4.53 | 3/3 |
| GFTLNSYGIS | VIYSDGRRTFYGDSEC | WRAAGTFDS | 3.49 | 2/3 |
| GFTLASWGIS | VIYSDGRRTFYGDSEK | GRAAGTFDS | nd | 0/3 |
| GETLNSYGIS | VIYSDGRRTFYLDSVK | GRWAGTFDS | 0.86 | 3/3 |
| GFTLNVYGIS | VIYSDGWRTFYGDSVK | GRAAGTFDS | 3.19 | 3/3 |
| GQTLNSYGIS | VIYSDGRRTFYGDSVK | GRCAGIFDS | 4.62 | 2/3 |
| GFTLNSYGIK | VIYSDGNRTFYTDSVK | GRAAGTFDS | 2.23 | 3/3 |
| GFTLNSYGIS | VIYSDNRRTFYGDSVH | GRAAGTFLS | 5.18 | 3/3 |
| GFTLNSYGIS | VIYSDGRRTKYKDSVK | MRAAGTFDS | 4.44 | 2/3 |
| GFTLNSYGIS | VIYSDGRRTFKGHSVK | GYAAGTFDS | nd | 0/3 |
| GFTLNNYGIS | VIYSDGRRTFYGDEVK | GRAAGTFDH | 0.65 | 3/3 |
| AFTLQSYGIS | RIYSDGRRTFYGDSVK | GRAAGTFDS | nd | 0/3 |
| GFTLNSYGVS | VIYSDGRRTFYGDSVK | FRAAGTFTS | nd | 0/3 |
| GFTLNSYGIS | VIYSDGRRTFSGGSVK | GREAGTFDS | 2.73 | 3/3 |
| GFTLNSDGIK | VIYSDGRRTFYGMSVK | GRAAGTFDS | nd | 0/3 |
| GFTLNSYGIS | VIYSDGRRTFYYDSVK | GRAAGTTCS | nd | 0/3 |
| GFTLNSYGNS | VIMSDGRRTFYGDSVK | GRAAGTFGS | nd | 0/3 |
| GFTMNSYGIS | VIYSDGRRYFYGDSVK | GRAAGTGDS | 3.80 | 1/3 |

A selection of 11 entries from above:

| CDR-H1 | CDR-H2 | CDR-H3 | log10 Kd (nM), mean | replicates with signal |
|---|---|---|---|---|
| GFTLASWGIS | VIYSDGRRTFYGDSEK | GRAAGTFDS | nd | 0/3 |
| GFTLNNYGIS | VIYSDGRRTFYGDEVK | GRAAGTFDH | 0.65 | 3/3 |
| AFTLQSYGIS | RIYSDGRRTFYGDSVK | GRAAGTFDS | nd | 0/3 |
| GFTLNSYGIS | VIYSDGRGTFYGDSHK | GRPAGTFDS | nd | 0/3 |
| GFTLNSYGIF | VIYSDGRRHFYGDSVK | GRAAGTGDS | nd | 0/3 |
| GFTLNSYGIS | VIYPDGRRTFYGDGVK | GRAAGTFDS | 3.29 | 1/3 |
| GFTLNSYGIS | VIYSDGRRTKYKDSVK | MRAAGTFDS | 4.44 | 2/3 |
| GFTLNSYDIS | VIYSDGRRTFYGDIVK | GRIAGTFDS | nd | 0/3 |
| GFTLNSYGIS | VIKSDGRRTFYGDIVK | GHAAGTFDS | 3.74 | 2/3 |
| GFTLNMYGIS | VIYSIGRRTFYGDSVK | GRAAGTTDS | 4.06 | 1/3 |
| GFTLNSYGIS | VIASWGRRTFYGDSVK | TRAAGTFDS | nd | 0/3 |

From the AlphaSeq antibody data of Engelhart et al. 2022 (doi:10.1038/s41597-022-01779-4), copy in the FLAb collection.